Measured values: ChEMBL document CHEMBL3745693, “Molecular Mechanism of Action of Triazolobenzodiazepinone Agonists of the Type 1 Cholecystokinin Receptor. Possible Cooperativity across the Receptor Homodimeric Complex” (J Med Chem, 2015)

The chains behind the UniProt entries cited, without tags or fusion partners.
UniProt P32238, whole entry L356H: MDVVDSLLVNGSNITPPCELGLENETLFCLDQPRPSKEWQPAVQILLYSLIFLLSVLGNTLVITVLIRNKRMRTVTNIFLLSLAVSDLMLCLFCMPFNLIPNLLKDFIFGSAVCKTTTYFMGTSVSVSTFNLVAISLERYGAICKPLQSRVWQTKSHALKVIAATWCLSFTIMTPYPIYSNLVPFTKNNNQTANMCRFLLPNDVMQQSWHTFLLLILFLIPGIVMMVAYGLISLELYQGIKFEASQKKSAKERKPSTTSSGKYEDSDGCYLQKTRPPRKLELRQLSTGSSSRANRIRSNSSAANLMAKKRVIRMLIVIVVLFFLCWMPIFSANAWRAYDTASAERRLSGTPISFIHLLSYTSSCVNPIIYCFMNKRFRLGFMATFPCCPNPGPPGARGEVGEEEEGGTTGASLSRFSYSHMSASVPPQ
UniProt P32238, whole entry W326A: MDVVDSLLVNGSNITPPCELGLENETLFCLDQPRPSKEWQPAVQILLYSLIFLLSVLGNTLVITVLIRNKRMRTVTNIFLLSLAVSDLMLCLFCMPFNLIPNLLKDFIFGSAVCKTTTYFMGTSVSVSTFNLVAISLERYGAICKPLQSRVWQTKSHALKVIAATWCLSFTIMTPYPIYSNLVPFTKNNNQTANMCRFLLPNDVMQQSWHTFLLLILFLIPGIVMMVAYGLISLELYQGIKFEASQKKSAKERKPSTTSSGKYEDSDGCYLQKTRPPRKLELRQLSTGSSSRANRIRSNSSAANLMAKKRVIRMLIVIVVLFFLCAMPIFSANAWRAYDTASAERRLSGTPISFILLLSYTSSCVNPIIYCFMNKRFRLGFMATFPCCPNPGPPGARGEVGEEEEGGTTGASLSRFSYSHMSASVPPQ
UniProt P32238, whole entry V125A: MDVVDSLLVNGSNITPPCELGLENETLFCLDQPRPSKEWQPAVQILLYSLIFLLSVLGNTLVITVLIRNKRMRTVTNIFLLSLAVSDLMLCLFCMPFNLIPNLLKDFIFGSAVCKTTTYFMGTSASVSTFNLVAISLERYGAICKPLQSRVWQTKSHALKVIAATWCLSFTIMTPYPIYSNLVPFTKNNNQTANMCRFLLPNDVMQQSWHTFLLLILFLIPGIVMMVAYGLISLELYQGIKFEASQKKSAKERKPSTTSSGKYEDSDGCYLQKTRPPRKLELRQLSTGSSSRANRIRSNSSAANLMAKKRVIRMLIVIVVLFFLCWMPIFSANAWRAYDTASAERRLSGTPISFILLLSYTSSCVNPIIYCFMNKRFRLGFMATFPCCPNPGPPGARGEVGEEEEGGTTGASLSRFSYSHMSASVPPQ
UniProt P32238, whole entry N98T: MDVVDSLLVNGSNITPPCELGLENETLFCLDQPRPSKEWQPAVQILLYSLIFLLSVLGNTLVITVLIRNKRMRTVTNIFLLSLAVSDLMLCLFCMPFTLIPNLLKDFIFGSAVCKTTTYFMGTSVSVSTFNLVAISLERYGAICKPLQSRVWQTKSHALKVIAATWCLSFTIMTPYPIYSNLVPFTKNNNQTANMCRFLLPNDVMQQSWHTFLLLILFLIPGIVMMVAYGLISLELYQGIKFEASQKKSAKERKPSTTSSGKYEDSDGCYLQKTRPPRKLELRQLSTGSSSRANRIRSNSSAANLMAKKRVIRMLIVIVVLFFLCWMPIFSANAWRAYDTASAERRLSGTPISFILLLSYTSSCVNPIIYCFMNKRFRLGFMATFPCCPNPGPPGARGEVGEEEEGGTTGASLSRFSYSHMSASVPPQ
UniProt P32238, whole entry T117V/T118S: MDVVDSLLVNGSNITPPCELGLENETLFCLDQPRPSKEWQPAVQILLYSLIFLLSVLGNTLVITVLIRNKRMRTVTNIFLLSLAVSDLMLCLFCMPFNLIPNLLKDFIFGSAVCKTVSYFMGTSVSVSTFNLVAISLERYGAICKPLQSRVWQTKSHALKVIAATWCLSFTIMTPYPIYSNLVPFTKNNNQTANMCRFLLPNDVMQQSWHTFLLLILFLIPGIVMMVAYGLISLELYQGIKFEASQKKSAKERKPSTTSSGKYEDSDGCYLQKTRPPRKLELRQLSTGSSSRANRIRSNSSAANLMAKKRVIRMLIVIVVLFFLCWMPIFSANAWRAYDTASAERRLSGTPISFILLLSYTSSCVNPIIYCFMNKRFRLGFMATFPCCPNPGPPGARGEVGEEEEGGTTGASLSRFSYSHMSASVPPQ
UniProt P32238, whole entry M121A: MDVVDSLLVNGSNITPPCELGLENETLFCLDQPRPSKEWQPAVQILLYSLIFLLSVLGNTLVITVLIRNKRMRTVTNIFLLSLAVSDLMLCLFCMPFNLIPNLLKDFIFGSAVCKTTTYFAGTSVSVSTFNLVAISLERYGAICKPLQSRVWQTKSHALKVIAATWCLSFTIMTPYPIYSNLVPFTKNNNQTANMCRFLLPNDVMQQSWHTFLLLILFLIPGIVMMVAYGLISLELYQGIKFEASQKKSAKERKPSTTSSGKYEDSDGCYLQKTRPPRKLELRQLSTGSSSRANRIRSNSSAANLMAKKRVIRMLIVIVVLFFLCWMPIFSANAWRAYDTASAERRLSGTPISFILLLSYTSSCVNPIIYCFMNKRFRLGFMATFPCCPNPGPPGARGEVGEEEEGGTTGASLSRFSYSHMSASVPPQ
UniProt P32238, whole entry: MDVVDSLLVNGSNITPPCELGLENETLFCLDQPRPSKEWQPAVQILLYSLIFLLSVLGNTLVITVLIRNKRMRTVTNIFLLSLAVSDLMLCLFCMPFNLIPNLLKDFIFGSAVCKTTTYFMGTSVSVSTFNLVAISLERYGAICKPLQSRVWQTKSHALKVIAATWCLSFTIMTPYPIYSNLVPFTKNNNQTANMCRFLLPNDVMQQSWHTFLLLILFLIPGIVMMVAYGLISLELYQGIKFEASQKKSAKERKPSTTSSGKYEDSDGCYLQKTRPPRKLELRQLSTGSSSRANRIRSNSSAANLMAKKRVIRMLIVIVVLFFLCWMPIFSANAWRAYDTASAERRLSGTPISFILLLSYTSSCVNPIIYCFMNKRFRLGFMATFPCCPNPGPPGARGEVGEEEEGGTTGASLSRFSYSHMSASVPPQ
UniProt P30551, whole entry: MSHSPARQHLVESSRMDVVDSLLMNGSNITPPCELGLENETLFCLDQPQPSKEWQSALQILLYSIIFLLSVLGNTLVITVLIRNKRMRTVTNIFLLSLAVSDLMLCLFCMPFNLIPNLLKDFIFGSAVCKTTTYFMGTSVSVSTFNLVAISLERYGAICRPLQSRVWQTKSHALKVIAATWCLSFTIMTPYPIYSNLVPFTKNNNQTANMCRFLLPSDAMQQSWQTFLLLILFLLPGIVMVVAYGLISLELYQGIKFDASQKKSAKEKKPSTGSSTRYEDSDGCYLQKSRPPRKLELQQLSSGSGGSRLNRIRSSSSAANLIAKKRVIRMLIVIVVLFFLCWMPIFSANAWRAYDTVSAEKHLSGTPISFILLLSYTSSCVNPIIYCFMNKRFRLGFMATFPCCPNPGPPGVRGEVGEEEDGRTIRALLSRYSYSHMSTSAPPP

How the values were obtained:
[1] = biological target: Cholecystokinin receptor type A (Homo sapiens, UniProt P32238, L356H); assay: Displacement of [125I-CCK] from human CCK1R L7.39H mutant expressed in CHO cells after 60 mins by scintillation counter; type: cell-based
[2] = biological target: T1, Gastrin/cholecystokinin type B receptor (Homo sapiens, UniProt P32239, H376L); assay: Displacement of [125I-BDZ-2] from human CCK2R H7.39L mutant expressed in CHO cells after 60 mins by scintillation counter; type: cell-based
[3] = biological target: T2, Cholecystokinin receptor type A (Homo sapiens, UniProt P32238, W326A); assay: Agonist activity at human CCK1R W6.48A mutant expressed in CHO cells assessed as intracellular calcium response by fluorescence analysis; type: functional, cell-based
[4] = biological target: T3, Cholecystokinin receptor type A (Homo sapiens, UniProt P32238, V125A); assay: Displacement of [125I-CCK] from human CCK1R V3.36A mutant expressed in CHO cells after 60 mins by scintillation counter; type: cell-based
[5] = biological target: T2, Cholecystokinin receptor type A; assay: Displacement of [125I-CCK] from human CCK1R W6.48A mutant expressed in CHO cells after 60 mins by scintillation counter; type: cell-based
[6] = biological target: T3, Cholecystokinin receptor type A; assay: Agonist activity at human CCK1R V3.36A mutant expressed in CHO cells assessed as intracellular calcium response by fluorescence analysis; type: functional, cell-based
[7] = biological target: Cholecystokinin receptor type A (Rattus norvegicus, UniProt P30551); assay: Displacement of [125I]-BDZ-1 from wild-type rat CCK1R expressed in COS cells after 60 mins by scintillation counter; type: cell-based
[8] = biological target: T4, Gastrin/cholecystokinin type B receptor (Homo sapiens, UniProt P32239); assay: Displacement of [125I-CCK] from wild-type human CCK2R expressed in CHO cells after 60 mins by scintillation counter; type: cell-based
T4 sequence (P32239 whole entry): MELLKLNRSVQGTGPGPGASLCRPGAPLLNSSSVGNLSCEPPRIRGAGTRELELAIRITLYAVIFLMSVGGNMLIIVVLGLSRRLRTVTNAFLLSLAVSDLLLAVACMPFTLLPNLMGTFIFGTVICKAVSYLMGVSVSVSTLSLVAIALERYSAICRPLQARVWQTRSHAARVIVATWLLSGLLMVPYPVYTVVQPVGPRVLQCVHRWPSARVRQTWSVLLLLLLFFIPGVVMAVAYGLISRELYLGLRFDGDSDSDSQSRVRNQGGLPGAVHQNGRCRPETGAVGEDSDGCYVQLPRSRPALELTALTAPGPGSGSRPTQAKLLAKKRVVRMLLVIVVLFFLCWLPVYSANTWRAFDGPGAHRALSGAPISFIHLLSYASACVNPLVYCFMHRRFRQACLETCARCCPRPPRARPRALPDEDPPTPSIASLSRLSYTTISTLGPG

[9] = biological target: T5, Cholecystokinin receptor type A (Homo sapiens, UniProt P32238, N98T); assay: Displacement of [125I-BDZ-1] from human CCK1R N2.61T mutant expressed in CHO cells after 60 mins by scintillation counter; type: cell-based
[10] = biological target: T6, Cholecystokinin receptor type A (Homo sapiens, UniProt P32238, T117V/T118S); assay: Displacement of [125I-BDZ-1] from human CCK1R T3.28V, T3.29S mutant expressed in CHO cells after 60 mins by scintillation counter; type: cell-based
[11] = biological target: T6, Cholecystokinin receptor type A; assay: Displacement of [125I-CCK] from human CCK1R T3.28V, T3.29S mutant expressed in CHO cells after 60 mins by scintillation counter; type: cell-based
[12] = biological target: T1, Gastrin/cholecystokinin type B receptor; assay: Displacement of [125I-CCK] from human CCK2R H7.39L mutant expressed in CHO cells after 60 mins by scintillation counter; type: cell-based
[13] = biological target: Cholecystokinin receptor type A (Homo sapiens, UniProt P32238, M121A); assay: Displacement of [125I-BDZ-1] from human CCK1R M3.32A mutant expressed in CHO cells after 60 mins by scintillation counter; type: cell-based
[14] = biological target: T3, Cholecystokinin receptor type A; assay: Displacement of [125I-BDZ-1] from human CCK1R V3.36A mutant expressed in CHO cells after 60 mins by scintillation counter; type: cell-based
[15] = biological target: T2, Cholecystokinin receptor type A; assay: Displacement of [125I-BDZ-1] from human CCK1R W6.48A mutant expressed in CHO cells after 60 mins by scintillation counter; type: cell-based
[16] = biological target: Cholecystokinin receptor type A (Homo sapiens, UniProt P32238); assay: Displacement of [125I-CCK] from wild-type human CCK1R expressed in CHO cells after 60 mins by scintillation counter; type: cell-based
[17] = biological target: Gastrin/cholecystokinin type B receptor (Homo sapiens, UniProt P32239, V349I/Y350F); assay: Agonist activity at human CCK2R V6.51I, Y6.52F mutant expressed in CHO cells assessed as intracellular calcium response by fluorescence analysis; type: functional, cell-based
[18] = biological target: T1, Gastrin/cholecystokinin type B receptor; assay: Agonist activity at human CCK2R H7.39L mutant expressed in CHO cells assessed as intracellular calcium response by fluorescence analysis; type: functional, cell-based
[19] = biological target: T5, Cholecystokinin receptor type A; assay: Displacement of [125I-CCK] from human CCK1R N2.61T mutant expressed in CHO cells after 60 mins by scintillation counter; type: cell-based

SMILES: Cc1cc(C)cc(C[C@H]2CCCCN2C(=O)CN2C(=O)[C@@H](Cc3n[nH]c4ccccc34)c3nnc(-c4ccccc4)n3-c3ccccc32)c1
- IC50 [1]: 794 nM
- IC50 [2]: 10 nM
- EC50 [3]: 5.01 nM
- IC50 [4]: 10 nM
- IC50 [5]: 1.41 nM
- EC50 [6]: 3.31 nM
- IC50 [7]: 168 nM
- IC50 [8]: 692 nM
- IC50 [9]: 105 nM
- IC50 [10]: 7.24 nM
- IC50 [11]: 42.7 nM

SMILES: CC(C)N(Cc1ccccc1)C(=O)CN1C(=O)[C@@H](Cc2c[nH]c3ccccc23)c2nnc(-c3ccccc3)n2-c2ccccc21 [CE-326597]
- IC50 [1]: 676 nM
- IC50 [2]: 2 nM
- IC50 [12]: 1.7 nM
- IC50 [13]: 15.1 nM
- IC50 [14]: 794 nM
- IC50 [15]: 269 nM
- IC50 [4]: 16.6 nM
- pEC50 [6]: 8.51
- IC50 [7]: 76.5 nM
- Ki [16]: 275 nM
- IC50 ([16]; read-out: IC50): 26.8 nM
- IC50 ([16]; read-out: pIC50 (converted)): 22.4 nM
- IC50 [8]: 275 nM
- EC50 [17]: 282 nM
- EC50 [18]: 58.9 nM
- IC50 [9]: 93.3 nM
- IC50 [19]: 2 nM
